Target: human topoisomerase II (Homo sapiens, UniProt P11388)
Assay: DNA Topo II inhibition (kDNA decatenation) assay
Format: biochemical
Description: The ATP-dependent decatenation of kinetoplast DNA (kDNA) obtained from Crithidia fasciculata, which consists of a network of numerous minicircles (2.3 Kb) and some maxicircles, was used to measure topoisomerase II inhibition. Reactions took place in 20 μL and comprised topoisomerase II, 200–300 ng of kDNA, and 120 mM KCl with 50 mM Tris-HCl, pH 8, 10 mM MgCl2, 0.5 mM ATP, and 0.5 mM dithiothreitol. In preliminary tests, the quantity of topoisomerase II (5 units) was changed to decatenate almost 100% of the kDNA under these assay circumstances. […] The products in the reaction mixture were separated by a 1% agarose gel after the reaction was complete and then could be seen after being stained with ethidium bromide (0.2 μg/mL). The gels were run at 100 V for about 40 min and visualised under UV transillumination.
This assay is based on the fact that human Topo II can decatenate interlinked double-stranded DNA molecules.

Protein sequences, listed by entry. Tags and fused reporters are not part of them. Lines headed by an entry give the natural chain unless they say otherwise; changes in a name come on top.
UniProt P11388: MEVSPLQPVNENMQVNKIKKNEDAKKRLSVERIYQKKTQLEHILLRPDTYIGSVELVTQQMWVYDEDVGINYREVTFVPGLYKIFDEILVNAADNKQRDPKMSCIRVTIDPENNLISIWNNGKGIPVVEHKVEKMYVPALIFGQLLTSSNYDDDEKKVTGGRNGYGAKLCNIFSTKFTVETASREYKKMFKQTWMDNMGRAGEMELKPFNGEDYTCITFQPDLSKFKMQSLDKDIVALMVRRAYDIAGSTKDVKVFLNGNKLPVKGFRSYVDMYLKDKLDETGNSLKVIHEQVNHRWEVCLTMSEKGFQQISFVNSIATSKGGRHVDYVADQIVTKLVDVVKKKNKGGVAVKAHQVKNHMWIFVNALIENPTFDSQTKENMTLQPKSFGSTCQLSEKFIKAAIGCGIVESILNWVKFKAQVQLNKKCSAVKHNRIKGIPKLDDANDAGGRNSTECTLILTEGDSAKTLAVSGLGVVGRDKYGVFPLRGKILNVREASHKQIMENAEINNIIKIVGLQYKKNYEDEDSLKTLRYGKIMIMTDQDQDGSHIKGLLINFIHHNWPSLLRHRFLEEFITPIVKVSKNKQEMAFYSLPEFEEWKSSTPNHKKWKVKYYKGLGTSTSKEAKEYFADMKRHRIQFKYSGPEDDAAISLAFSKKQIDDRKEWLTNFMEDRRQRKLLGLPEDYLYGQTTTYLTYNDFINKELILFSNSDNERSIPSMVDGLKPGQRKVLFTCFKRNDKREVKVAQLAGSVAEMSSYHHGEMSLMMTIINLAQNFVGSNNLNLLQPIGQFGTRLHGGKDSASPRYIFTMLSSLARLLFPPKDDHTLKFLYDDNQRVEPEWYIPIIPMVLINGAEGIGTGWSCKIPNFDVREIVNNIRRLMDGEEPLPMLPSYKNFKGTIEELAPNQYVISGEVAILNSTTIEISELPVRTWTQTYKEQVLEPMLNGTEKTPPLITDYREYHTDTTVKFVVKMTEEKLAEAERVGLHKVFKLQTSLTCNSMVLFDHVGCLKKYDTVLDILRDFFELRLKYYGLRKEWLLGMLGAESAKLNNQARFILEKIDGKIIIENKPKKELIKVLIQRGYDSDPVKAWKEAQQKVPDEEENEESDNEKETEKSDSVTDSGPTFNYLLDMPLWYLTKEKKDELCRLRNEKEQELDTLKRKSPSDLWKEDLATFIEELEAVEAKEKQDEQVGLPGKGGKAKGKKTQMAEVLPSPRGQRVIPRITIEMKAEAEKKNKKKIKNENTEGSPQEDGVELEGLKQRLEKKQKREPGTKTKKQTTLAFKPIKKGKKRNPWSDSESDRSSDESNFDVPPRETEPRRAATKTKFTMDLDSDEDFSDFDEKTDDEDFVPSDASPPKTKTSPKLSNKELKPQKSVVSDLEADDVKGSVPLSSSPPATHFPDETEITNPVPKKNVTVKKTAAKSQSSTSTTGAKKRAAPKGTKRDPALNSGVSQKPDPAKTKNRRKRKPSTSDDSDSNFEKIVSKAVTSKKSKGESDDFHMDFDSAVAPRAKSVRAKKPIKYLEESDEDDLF

SMILES: COc1cc([C@@H]2c3cc4c(cc3[C@@H](O[C@@H]3O[C@@H]5CO[C@@H](C)O[C@H]5[C@H](O)[C@H]3O)[C@H]3COC(=O)[C@H]23)OCO4)cc(OC)c1O [Etoposide, reference compound]
- %inh TOPO II (conc 0.1 (μM)): 39%
- %inh TOPO II (conc 1 (μM)): 60%
- %inh TOPO II (conc 10 (μM)): 80%
- %inh TOPO II (conc 100 (μM)): 92%

— publication PMC9930781, “Design, synthesis, docking, and anticancer evaluations of new thiazolo[3,2-a] pyrimidines as topoisomerase II inhibitors” (Journal of Enzyme Inhibition and Medicinal Chemistry, 2023)
